SMILES strings stand for the structures.

Protein sequences, listed by entry. Tags and fused reporters are not part of them. Lines headed by an entry give the natural chain unless they say otherwise; changes in a name come on top.
UniProt P41144: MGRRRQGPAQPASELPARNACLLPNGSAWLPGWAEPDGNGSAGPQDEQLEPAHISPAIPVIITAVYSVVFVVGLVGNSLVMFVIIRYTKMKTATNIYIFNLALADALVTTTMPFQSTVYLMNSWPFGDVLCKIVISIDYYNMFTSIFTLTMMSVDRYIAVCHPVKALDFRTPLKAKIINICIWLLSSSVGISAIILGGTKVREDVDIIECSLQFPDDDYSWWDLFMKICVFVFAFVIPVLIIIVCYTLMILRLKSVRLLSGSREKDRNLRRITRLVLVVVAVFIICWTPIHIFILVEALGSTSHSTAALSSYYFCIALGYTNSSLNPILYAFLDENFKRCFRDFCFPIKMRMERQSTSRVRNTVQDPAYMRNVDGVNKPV

As usually defined, the Kd is the concentration at which binding is half-saturated. High values mean a looser complex, low ones a tighter complex.

This assay deals with Kappa-type opioid receptor (Cavia porcellus, UniProt P41144). Description: Binding affinity at Opioid receptor kappa 1 in guinea pig brain membrane determined by using [3H]U-69593 as radioligand.

Consider `CN(C(=O)Cc1ccccc1)[C@H]1CC[C@@]2(CCCO2)C[C@@H]1N1CCCC1`, for which the Kd was 4.3 nM. In other words, the single-digit nanomolar range.

Source of the values: ChEMBL document CHEMBL1123989, “Effects of addition of a 2-methyl group to ethyl nipecotates (beta-meperidines) on receptor affinities and opiate agonist/antagonist activities” (J Med Chem, 1988).
